The record followed here is PubChem BioAssay AID1963576 (National Center for Advancing Translational Sciences (NCATS), 2024).

The structures appear in SMILES notation. Only a part is listed here, and it is no random draw. Results filed as inconclusive are left out. The source made the active and inactive calls. Calls follow the shape of the dose curve; as a rule, active = well fitted inhibition curve with a large enough effect; inconclusive = small, poorly fitted or top-dose-only effect; inactive = no such curve, though single readings can be large or run the other way.

A short description of the assay: Primary qHTS assay for Inhibitors of ovarian cancer metastasis using an organotypic tumor microenvironment (TME) model.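 Also: plate controls were DMSO wells for no effect and tomatine positive control wells for full effect; nearly all actives have a fitted effect of over 65% in size.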 The settings on record: SKOV3ip1-GFP adhesion/invasion on 3D omental model, fluorescence; at 23.2 µM (top of the series). An excerpt:
PI: Ernst Lengyel MD., Ph.D. Department of Obstetrics and Gynecology, Section of Gynecologic Oncology University of Chicago Medicine, Chicago, Illinois. The tumor microenvironment (TME) is a key determinant of metastatic efficiency. We performed a quantitative high-throughput screen (qHTS) of diverse medicinal chemistry tractable scaffolds (44,420 compounds) and pharmacologically active small molecules (386 compounds) using a layered organotypic, robust assay representing the ovarian cancer metastatic TME. This 3D model contains primary human mesothelial cells, fibroblasts, and extracellular matrix, to which fluorescently labeled ovarian cancer cells are added. Initially, 100 compounds inhibiting ovarian cancer adhesion/invasion to the 3D model in a dose-dependent manner were identified. […]
PROTOCOL TABLE (as described by Inglese J, Shamu CE and Guy RK. 2007) SEQUENCE No. (e.g., 1, 2, 3, etc.); […] […] 11; Detection; Fluorescence, excitation filter 488 nm, emission filter 509 nm. […] The number of GFP-labeled cells analyzed using a fluorescent cytometer TTP LabTech Acumen eX3 using 488 nm excitation filter and 509 nm emission filter. […] Yasgar A, Shinn P, Jadhav A, Auld DS, Michael S, Zheng W, Austin CP, Inglese J and Simeonov A, Compound Management for Quantitative High-Throughput Screening. […]
For orientation: In qHTS, concentration-response curves come from the screen itself.
Take `CC1=C2[N-][C@@](C)([C@@H]3N=C(C(C)=C4N=C(C=C5N=C1[C@@](C)(CC(N)=O)[C@H]5CCC(N)=O)C(C)(C)[C@H]4CCC(N)=O)[C@](C)(CCC(=O)NC[C@@H](C)OP(=O)([O-])O[C@H]1[C@@H](O)[C@@H](n4cnc5cc(C)c(C)cc54)O[C@H]1CO)[C@H]3CC(N)=O)[C@@](C)(CC(N)=O)[C@@H]2CCC(N)=O.[C-]#N.[Co+3]`: the activity change, negative = inhibition is inactive: 4.63%.
